{"sequences": {"note": "The chains behind the UniProt entries cited, without tags or fusion partners.", "UniProt P10415, whole entry": "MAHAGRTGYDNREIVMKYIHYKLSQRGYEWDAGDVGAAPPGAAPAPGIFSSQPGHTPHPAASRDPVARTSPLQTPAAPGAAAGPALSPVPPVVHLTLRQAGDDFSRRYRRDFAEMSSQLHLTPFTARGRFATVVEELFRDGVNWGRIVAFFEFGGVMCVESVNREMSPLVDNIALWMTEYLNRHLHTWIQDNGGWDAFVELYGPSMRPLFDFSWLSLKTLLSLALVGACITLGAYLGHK", "UniProt Q07817, whole entry": "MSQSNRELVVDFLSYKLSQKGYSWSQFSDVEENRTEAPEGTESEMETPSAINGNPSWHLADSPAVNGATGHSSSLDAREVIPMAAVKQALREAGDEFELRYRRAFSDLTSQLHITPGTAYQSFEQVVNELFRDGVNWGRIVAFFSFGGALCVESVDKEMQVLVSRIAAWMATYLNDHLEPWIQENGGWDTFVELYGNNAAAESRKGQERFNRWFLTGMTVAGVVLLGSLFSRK"}, "source": "paper PMC3417242", "about": "(Journal of medicinal chemistry, 2012)", "key": {"[1]": {"biological_target": "Bcl-2 (Homo sapiens, UniProt P10415)", "assay": "Fluorescence polarization-based", "settings": "FP competitive binding"}, "[2]": {"biological_target": "Bcl-xL (Homo sapiens, UniProt Q07817)", "assay": "Fluorescence polarization-based", "settings": "read-out: Binding Affinities Bcl-xL Ki ± SD; FP competitive binding"}}, "data": [{"substance": "(R)-5-(4-Chlorophenyl)-4-(3-(4-(4-(((4-((4-(dimethylamino)-1-(phenylthio)butan-2-yl)amino)phenyl)sulfonyl)carbamoyl)phenyl)piperazin-1-yl)phenyl)-1,2-dimethyl-N-(3-(4-methylpiperazin-1-yl)propyl)-1H-pyrrole-3-carboxamide [Compound 9]", "values": [{"measurement": "IC50", "setting": "[1]; read-out: Binding Affinities Bcl-2 IC50 ± SD", "result": "29 ± 8", "unit": "nM"}, {"measurement": "Ki", "setting": "[1]; read-out: Binding Affinities Bcl-2 Ki ± SD", "result": "7 ± 2", "unit": "nM"}, {"measurement": "Ki", "setting": "[2]", "result": 1.3, "unit": "nM"}]}]}
